In patent publication US8877778B2, “Benzofurane compounds” (Hoffmann-La Roche Inc., priority 2010, dated 2014) one finds Ki data, which are given here for 9 compounds.

Protein sequences, listed by entry. Tags and fused reporters are not part of them.
UniProt P14416, whole entry: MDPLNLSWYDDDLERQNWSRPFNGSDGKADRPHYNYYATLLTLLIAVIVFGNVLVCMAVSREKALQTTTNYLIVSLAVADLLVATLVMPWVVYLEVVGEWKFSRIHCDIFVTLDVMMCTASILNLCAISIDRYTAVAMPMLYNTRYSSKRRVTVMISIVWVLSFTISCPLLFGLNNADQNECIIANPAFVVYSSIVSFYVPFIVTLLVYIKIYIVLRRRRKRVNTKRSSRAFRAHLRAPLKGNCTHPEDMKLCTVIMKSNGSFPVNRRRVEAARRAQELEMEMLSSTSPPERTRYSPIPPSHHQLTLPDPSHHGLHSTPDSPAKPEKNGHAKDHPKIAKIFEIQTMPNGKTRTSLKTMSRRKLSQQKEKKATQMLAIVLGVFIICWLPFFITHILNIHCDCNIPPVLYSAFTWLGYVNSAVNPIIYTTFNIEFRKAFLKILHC
UniProt P28223, whole entry: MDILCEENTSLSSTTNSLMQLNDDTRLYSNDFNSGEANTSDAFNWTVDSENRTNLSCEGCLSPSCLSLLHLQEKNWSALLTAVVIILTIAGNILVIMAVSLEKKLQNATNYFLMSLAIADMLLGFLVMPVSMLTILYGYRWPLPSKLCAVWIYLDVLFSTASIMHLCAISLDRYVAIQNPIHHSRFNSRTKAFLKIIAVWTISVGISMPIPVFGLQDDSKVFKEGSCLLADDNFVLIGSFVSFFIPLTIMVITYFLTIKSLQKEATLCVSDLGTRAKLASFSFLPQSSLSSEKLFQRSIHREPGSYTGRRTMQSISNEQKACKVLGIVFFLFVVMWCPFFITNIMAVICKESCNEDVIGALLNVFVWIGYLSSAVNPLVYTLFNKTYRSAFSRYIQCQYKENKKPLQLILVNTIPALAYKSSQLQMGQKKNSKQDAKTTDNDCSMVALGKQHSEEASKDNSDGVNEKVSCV
UniProt P35462, whole entry: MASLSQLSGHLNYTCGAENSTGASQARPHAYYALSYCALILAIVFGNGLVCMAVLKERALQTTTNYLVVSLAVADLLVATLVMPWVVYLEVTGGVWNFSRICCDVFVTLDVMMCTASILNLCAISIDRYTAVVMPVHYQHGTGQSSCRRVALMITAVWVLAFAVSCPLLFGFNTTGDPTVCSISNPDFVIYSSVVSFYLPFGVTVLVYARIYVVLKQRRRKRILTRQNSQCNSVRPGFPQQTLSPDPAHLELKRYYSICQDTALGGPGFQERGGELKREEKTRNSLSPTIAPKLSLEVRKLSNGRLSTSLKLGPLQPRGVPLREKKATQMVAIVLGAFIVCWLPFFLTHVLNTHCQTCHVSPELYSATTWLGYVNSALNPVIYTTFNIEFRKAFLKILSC

Assay [1] deals with human D2 receptor (Homo sapiens (Human), UniProt P14416). Nature of the assay: Radioligand binding ([3H]-spiperone) to cloned receptors expressed in HEK-293 EBNA cells. The settings on record: HEK293 EBNA cell membranes expressing human D2. As for the experimental part: (§1) The ability of the compounds to bind to the 5-HT2A, D3 and D2 receptors was determined using radioligand binding to cloned receptors selectively expressed in HEK-293 EBNA cells.
(§2) HEK293 EBNA cells were transiently transfected with expression plasmids encoding for the human D2 or D3 or for the human 5-HT2A receptor, respectively. The cells were harvested 48 h post-transfection, washed three times with cold PBS and stored at −80° C. prior to use. The pellet was suspended in cold 50 mM Tris-HCl buffer comprising 10 mM EDTA (pH 7.4) and was homogenized with a Polytron (Kinematica AG, Basel, Switzerland) for 20-30 sec at 12.000 rpm. After centrifugation at 48.000×g for 30 min at 4° C., the pellet was resuspended in cold 10 mM Tris-HCl buffer comprising 0.1 mM EDTA (pH 7.4), homogenized, and centrifuged as above. This pellet was further resuspended in a smaller volume of ice cold 10 mM Tris-HCl buffer comprising 0.1 mM EDTA (pH 7.4) and homogenized with a Polytron for 20-30 sec at 12.000 rpm. The protein content of this homogenate was determined with the Bio-Rad (Bradford) Protein Assay (Biorad Laboratories GmbH, München, Germany) according to the instructions of the manufacturer using gamma globulin as the standard. This homogenate was stored at −80° C. in aliquots and thawed immediately prior to use.
(§3) Aliquots of membrane preparations were thawed at RT, resupended in assay buffer (D2, D3: 50 mM Tris-HCl, 120 mM NaCl, 5 mM MgCl2, 1 mM EDTA, 5 mM KCl, 1.5 mM CaCl2, pH=7.4; 5-HT2A: 50 mM Tris-HCl, 10 mM MgCl2, 1 mM EGTA, pH=7.4), homogenized with a Polytron for 20-30 sec at 12.000 rpm and adjusted to a final concentration of approximately 7.5 μg protein/well (D2, D3) and 15 μg protein/well (5-HT2A), respectively.
(§4) The binding affinity (Ki) of the compounds was determined using radioligand binding. Membranes were incubated in a total volume of 200 μl with a fixed concentration of radioligand (final concentration approximately 0.7 nM [^3H]-spiperone for D2, 0.5 nM [^3H]-spiperone for D3, and 1.1 nM [^3H]-ketanserin for 5-HT2A) and ten concentrations of test compound in ranging between 10 μM-0.1 nM for 1 h at RT. At the end of the incubation, the reaction mixtures were filtered on to unifilter 96-well white microplates with bonded GF/C filters (Packard BioScience, Zürich, Switzerland; preincubated for 1 h in 0.1% polyethylenimine (PEI) in assay buffer) with a Filtermate 196 harvester (Packard BioScience) and washed 3 times with cold assay buffer. The nonspecific binding was determined with equally composed reaction mixtures in the presence of 10 μM unlabelled spiperone. Per well 45 μl of Microscint 40 (Perkin Elmer, Schwerzenbach, Switzerland) was added, plates for sealed, shaken for 20 min and counted for 3 min on a Topcount Microplate Scintillation Counter (Can berra Packard SA, Zürich, Switzerland) with quenching correction.
(§5) The CPM value for each duplicate of a concentration of competing compound was averaged (y1), then the % specific binding was calculated according to the equation (((y1−non-specific)/(total binding−non-specific))×100). Graphs were plotted with the % specific binding using XLfit, a curve fitting program that iteratively plots the data using Levenberg-Marquardt algorithm. The single site competition analysis equation used was y=A+((B−A)/(1+((x/C)D))), where y is the % specific binding, A is the minimum y, B is the maximum y, C is the IC50, x is the log 10 of the concentration of the competing compound and D is the slope of the curve (the Hill Coefficient). From these curves the IC50 (inhibition concentration at which 50% specific binding of the radioligand was displaced) and Hill coefficient were determined. The affinity constant (Ki) was calculated using the Cheng-Prusoff equation Ki=(IC50/1+([L]/Kd), where [L] is the concentration of radioligand and Kd is the dissociation constant of the radioligand at the receptor as determined by the saturation isotherm.

For assay [2], the target named is human 5-HT2A receptor (Homo sapiens (Human), UniProt P28223). As to the kind of experiment: Radioligand binding ([3H]-ketanserin) to cloned receptors expressed in HEK-293 EBNA cells. The settings on record: HEK293 EBNA cell membranes expressing human 5-HT2A. The procedure: as §1, §2, §3
The binding affinity (Ki) of the compounds was determined using radioligand binding. […] The nonspecific binding was determined with equally composed reaction mixtures in the presence of 10 μM unlabelled spiperone. Per well 45 μl of Microscint 40 (Perkin Elmer, Schwerzenbach, Switzerland) was added, plates for sealed, shaken for 20 min and counted for 3 min on a Topcount Microplate Scintillation Counter (Can berra Packard SA, Zürich, Switzerland) with quenching correction.
The CPM value for each duplicate of a concentration of competing compound was averaged (y1), then the % specific binding was calculated according to the equation (((y1−non-specific)/(total binding−non-specific))×100). […] The affinity constant (Ki) was calculated using the Cheng-Prusoff equation Ki=(IC50/1+([L]/Kd), where [L] is the concentration of radioligand and Kd is the dissociation constant of the radioligand at the receptor as determined by the saturation isotherm.

The target of assay [3] is human D3 receptor (Homo sapiens (Human), UniProt P35462). Nature of the assay: Radioligand binding ([3H]-spiperone) to cloned receptors expressed in HEK-293 EBNA cells. The settings on record: HEK293 EBNA cell membranes expressing human D3. As for the experimental part:
as §1, §2, §3, §4, §5

Molecules are shown by their SMILES.

A word on the Ki: it is a dissociation constant, usually derived from enzyme kinetics or from competition with a known ligand. Take `O=C(N[C@H]1CC[C@H](CCN2CCC(c3cccc4c3CCO4)CC2)CC1)C1CCCO1` (mixture of isomers) [Example 53, (RS)-Tetrahydro-furan-2-carboxylic acid trans-(4-{2-[4-(2,3-dihydro-benzofuran-4-yl)-piperidin-1-yl]-ethyl}-cyclohexyl)-amide]: in assay [1], the Ki stood at 0.373 µM.
In the case of `O=C(C[C@H]1CCCO1)N[C@H]1CC[C@H](CCN2CCC(c3cccc4c3CCO4)CC2)CC1` [Example 31, trans-N-(4-{2-[4-(2,3-Dihydro-benzofuran-4-yl)-piperidin-1-yl]-ethyl}-cyclohexyl)-(R)-2-(tetrahydro-furan-2-yl)-acetamide], the results for the Ki in assay [1] and in assay [2] were 0.514 µM and 0.0357 µM, respectively.
On to `O=C(C[C@@H]1COCCO1)N[C@H]1CC[C@H](CCN2CCC(c3cccc4c3CCO4)CC2)CC1` [Example 21, trans-N-(4-{2-[4-(2,3-Dihydro-benzofuran-4-yl)-piperidin-1-yl]-ethyl}-cyclohexyl)-(R)-2-[1,4]dioxan-2-yl-acetamide], for which the figures for the Ki in assay [1] and in assay [3] were 0.42 µM and 0.009 µM, respectively.
In the case of `O=C(CC1COCCO1)N[C@H]1CC[C@H](CCN2CCC(c3cccc4occc34)CC2)CC1` (mixture of isomers) [Example 12, trans-N-{4-[2-(4-Benzofuran-4-yl-piperidin-1-yl)-ethyl]-cyclohexyl}-rac-2-[1,4]dioxan-2-yl-acetamide], in assay [2], the Ki came out at 0.0041 µM.
For the compound `O=C(N[C@H]1CC[C@H](CCN2CCC(c3cccc4c3CCO4)CC2)CC1)C1CCCOC1` (mixture of isomers) [Example 54, (RS)-Tetrahydro-pyran-3-carboxylic acid trans-(4-{2-[4-(2,3-dihydro-benzofuran-4-yl)-piperidin-1-yl]-ethyl}-cyclohexyl)-amide], the Ki in assay [3] turned out to be 0.0171 µM.
Take `O=C(N[C@H]1CC[C@H](CCN2CCC(c3cccc4c3CCO4)CC2)CC1)C(O)C(F)(F)F` (mixture of isomers) [Example 37, trans-(RS)—N-(4-{2-[4-(2,3-Dihydro-benzofuran-4-yl)-piperidin-1-yl]-ethyl}-cyclohexyl)-3,3,3-trifluoro-2-hydroxy-propionamide]: in assay [2], the Ki was found to be 0.0261 µM.
With `CCC(C)C(=O)N[C@H]1CC[C@H](CCN2CCC(c3cccc4c3CCO4)CC2)CC1` (mixture of isomers) [Example 62, trans-N-(4-{2-[4-(2,3-Dihydro-benzofuran-4-yl)-piperidin-1-yl]-ethyl}-cyclohexyl)-(RS)-2-methyl-butyramide], the Ki in assay [3] was 0.0168 µM.
In the case of `O=C(C[C@@H]1CCCO1)N[C@H]1CC[C@H](CCN2CCC(c3cccc4c3CCO4)CC2)CC1` [Example 32, trans-N-(4-{2-[4-(2,3-Dihydro-benzofuran-4-yl)-piperidin-1-yl]-ethyl}-cyclohexyl)-(S)-2-(tetrahydro-furan-2-yl)-acetamide], the Ki in assay [1] was 0.557 µM; in assay [3], 0.0117 µM; in assay [2], 0.0325 µM.
Consider `O=C(C[C@H]1COCCO1)N[C@H]1CC[C@H](CCN2CCC(c3cccc4c3CCO4)CC2)CC1` [Example 22, trans-N-(4-{2-[4-(2,3-Dihydro-benzofuran-4-yl)-piperidin-1-yl]-ethyl}-cyclohexyl)-(8)-2-[1,4]dioxan-2-yl-acetamide], for which the Ki came out at 0.687 µM in assay [1] and 0.0107 µM in assay [3].
